Results as given in patent publication US8765669B2, “Glycosylated GLP-1 peptide” (Glytech, Inc., priority 2008, dated 2014).

Chains of the proteins cited; added tags and fusions are not shown. Lines headed by an entry give the natural chain unless they say otherwise; changes in a name come on top.
UniProt P22411: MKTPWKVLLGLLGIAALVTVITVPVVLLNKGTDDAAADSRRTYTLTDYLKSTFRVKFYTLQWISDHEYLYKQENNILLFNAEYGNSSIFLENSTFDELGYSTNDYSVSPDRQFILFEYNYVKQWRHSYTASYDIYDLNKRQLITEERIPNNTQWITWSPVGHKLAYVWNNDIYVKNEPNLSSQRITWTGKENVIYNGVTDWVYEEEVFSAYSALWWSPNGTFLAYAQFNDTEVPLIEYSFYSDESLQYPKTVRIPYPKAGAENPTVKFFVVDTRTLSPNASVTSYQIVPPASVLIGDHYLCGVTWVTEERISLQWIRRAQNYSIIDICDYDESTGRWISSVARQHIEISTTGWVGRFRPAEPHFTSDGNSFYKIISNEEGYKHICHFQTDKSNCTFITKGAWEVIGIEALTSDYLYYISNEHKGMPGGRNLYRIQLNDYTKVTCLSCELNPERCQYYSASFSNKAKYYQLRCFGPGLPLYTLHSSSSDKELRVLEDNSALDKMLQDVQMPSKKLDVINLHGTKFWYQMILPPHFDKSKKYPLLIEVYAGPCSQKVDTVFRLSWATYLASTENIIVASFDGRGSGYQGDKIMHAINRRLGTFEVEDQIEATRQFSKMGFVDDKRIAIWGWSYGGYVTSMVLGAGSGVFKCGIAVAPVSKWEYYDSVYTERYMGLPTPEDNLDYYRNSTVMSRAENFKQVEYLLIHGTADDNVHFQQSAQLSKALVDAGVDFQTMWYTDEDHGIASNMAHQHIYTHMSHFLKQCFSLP

Molecular target: T1, DPP-IV (dipeptidyl peptidase IV from porcine kidney) (Sus scrofa, UniProt P22411)
T1 construct: dipeptidyl peptidase IV from porcine kidney, product of SIGMA; purchased SIGMA; host or cells: porcine kidney (tissue-derived enzyme)
Assay: Test of resistance to dipeptidyl peptidase IV (DPP-IV)
Format: in vitro ADME
Conditions: half-life (t1/2) in DPP-IV solution at 37° C., GLP-1 of Comparative Example 1 defined as standard (=1)
Description: Each solution mixture was adjusted with 100 mM sodium phosphate buffer to 100 μl in total and allowed to react at 37° C. A 10 μaliquot of the reaction solution was mixed with 15 μl of 10% trifluoroacetic acid prepared in advance in another Eppendorf tube.

Which “Relative Resistance” value does the source give for “26Lys-Asialo Oligosaccharide Chain Asn Linker-Modified Arg34GLP-1 (7-37) Peptide [Example 13]” here?
Its value is 5.7.
